Earlier results on 1 molecule are cited in patent publication US6011000A, “Compositions for the treatment of blood disorders” (priority 1995, dated 2000).

The series relates to fetal globin synthesis in tissue culture cells. As to conditions: cited from earlier work.

B1: IL3: interleukin-3 (IL3) (protein, UniProt P08700 20-152, looked up)
Interleukin-3: APMTQTTPLKTSWVNCSNMIDEIITHLKQPPLPLLDFNNLNGEDQDILMENNLRRPNLEAFNRAVKSLQNASAIESILKNLLPCLPLATAAPTRHPIHIKDGDWNEFRRKLTFYLKTLENAQAQQTTLSLAIF
Take B1: the fetal globin synthesis result is “increase fetal globin synthesis in tissue culture cells”.
